Assays:
LOX-1 129-273 (human) [1] = target: LOX-1 129-273 (human) (UniProt P78380); experiment: native MS; no ligand; 10 uM LOX129 in 200 mM NH4Ac pH 7.5, 5% isopropanol, room temperature, Vc = 40 V; species seen: dimer (main) and tetramer (trace)
LOX-1 129-273 (human) [2] = target: LOX-1 129-273 (human) (UniProt P78380); experiment: ESI-MS under denaturing conditions; LOX129 diluted to 1 uM in 50/50 water/acetonitrile with 0.5% formic acid; chains to covalent dimer

stoichiometry N (LOX-1 129-273 (human) [1]): 2 | stoichiometry N (LOX-1 129-273 (human) [2]): 2
Substance: LOX-1 129-273 (from UniProt P78380 129-273) (domain or fragment)

Reference: PMC9814544, “A small-molecule inhibitor of lectin-like oxidized LDL receptor-1 acts by stabilizing an inactive receptor tetramer state” (Communications Chemistry, 2020)
